Results on two compounds are retold here after PubChem BioAssay AID624151 (Broad Institute, 2012).

This is a selection; strong and weak results do not stand in their true shares. Some structures show a salt or complex split into parts, the way the source records it. Calls of active or inactive are those of the source. No stated cut-off is given here; in the data, active means activation above about 52%; inconclusive means no clear call, values can overlap the other calls; inactive means below that.

A short description of the assay: mutant p53 pathway re-activators, primary screen, cell-based, SW480, luciferase, single point, HTS (AID 624151). As to conditions: SW480 PUMA-promoter luciferase, p53 mutant reactivation; at 9.98 µM; hits give high values.
`C/C1=C2N=C(/C=C3N=C(/C(C)=C4\[N-][C@@](C)([C@@H]5N=C1[C@](C)(CCC(=O)NCC(C)OP(=O)(O)O[C@@H]1[C@H](O)[C@H](n6cnc7cc(C)c(C)cc76)O[C@H]1CO)[C@H]5CC(N)=O)[C@@](C)(CC(N)=O)[C@@H]4CCC(N)=O)[C@@](C)(CC(N)=O)[C@@H]\3CCC(N)=O)C(C)(C)[C@@H]/2CCC(N)=O.[C-]#N.[Co+3]` (some centres not stated): the activation was inactive: 5.86%. In the case of `C/C1=C2N=C(/C=C3N=C(/C(C)=C4\[N-][C@@](C)([C@@H]5N=C1[C@](C)(CCC(=O)NC[C@@H](C)OP(=O)(O)O[C@H]1[C@@H](O)[C@@H](n6cnc7cc(C)c(C)cc76)O[C@@H]1CO)[C@H]5CC(N)=O)[C@@](C)(CC(N)=O)[C@@H]4CCC(N)=O)[C@@](C)(CC(N)=O)[C@@H]\3CCC(N)=O)C(C)(C)[C@@H]/2CCC(N)=O.[C-]#N.[Co+3]` it was inactive: -13.7%.
